1 molecule from article PMC4786016 (Environmental science & technology, 2015) can be followed below.

Chains of the proteins cited; added tags and fusions are not shown. Lines headed by an entry give the natural chain unless they say otherwise; changes in a name come on top.
UniProt P37231: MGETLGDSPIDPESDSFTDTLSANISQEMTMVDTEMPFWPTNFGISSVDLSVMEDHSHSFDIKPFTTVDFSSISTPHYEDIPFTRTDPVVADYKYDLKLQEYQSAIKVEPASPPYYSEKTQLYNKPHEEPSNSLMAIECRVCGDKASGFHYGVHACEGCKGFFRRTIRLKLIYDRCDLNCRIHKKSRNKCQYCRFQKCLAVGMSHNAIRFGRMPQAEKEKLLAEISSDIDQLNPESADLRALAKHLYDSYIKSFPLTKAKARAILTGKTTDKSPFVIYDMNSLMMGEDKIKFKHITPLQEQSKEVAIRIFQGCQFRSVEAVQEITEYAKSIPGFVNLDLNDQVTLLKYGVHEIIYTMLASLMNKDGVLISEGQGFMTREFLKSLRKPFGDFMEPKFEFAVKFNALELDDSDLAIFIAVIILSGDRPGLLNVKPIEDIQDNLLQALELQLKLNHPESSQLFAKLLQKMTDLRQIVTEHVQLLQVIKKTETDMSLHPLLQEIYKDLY

This test deals with human PPARγ1 (Homo sapiens, UniProt P37231). As to the kind of experiment: GeneBLAzer PPARγ1 non-DA reporter gene assay. On the technique in general: A reporter such as luciferase makes a cellular process visible.

In the case of `c1ccc(OP(Oc2ccccc2)Oc2ccccc2)cc1` [TPPi, triphenyl phosphite], the “ATVmax: maximal activation% of the tested compounds relative to rosiglitazone” value is given as 12%; the “[ATVmax]: concentration of the tested compounds to induce the maximal activation%” value turned out to be 11 µM; the “efficacy (qualitative, based on ATVmax)” value is “+ (key: + 7–20%; ++ 20–30%; +++ 30–40%; ++++ 40–50%; +++++ >50%)”.
